Tests used:
[1] = biological target: Alkaline phosphatase, germ cell type (Homo sapiens, UniProt P10696); assay: ASSAY_NAME: ChEMBL_157081 (CHEMBL765525) DESCRIPTION: Inhibition of Human Placental alkaline Phosphatase (PLAP)
[2] = biological target: Serine/threonine-protein phosphatase (Lambdavirus lambda, UniProt P03772); assay: ASSAY_NAME: ChEMBL_96757 (CHEMBL705380) DESCRIPTION: Inhibitory activity against Serine/Threonine Protein Phosphatase (Lambda protein phosphatase)
[3] = biological target: Alkaline phosphatase, tissue-nonspecific isozyme (Rattus norvegicus, UniProt P08289); assay: ASSAY_NAME: ChEMBL_29961 (CHEMBL640395) DESCRIPTION: Inhibitory activity against Escherichia coli Alkaline Phosphatase

Chains of the proteins cited; added tags and fusions are not shown. Lines headed by an entry give the natural chain unless they say otherwise; changes in a name come on top. Residues count along the entry.
UniProt P10696, 20-503 limits assumed: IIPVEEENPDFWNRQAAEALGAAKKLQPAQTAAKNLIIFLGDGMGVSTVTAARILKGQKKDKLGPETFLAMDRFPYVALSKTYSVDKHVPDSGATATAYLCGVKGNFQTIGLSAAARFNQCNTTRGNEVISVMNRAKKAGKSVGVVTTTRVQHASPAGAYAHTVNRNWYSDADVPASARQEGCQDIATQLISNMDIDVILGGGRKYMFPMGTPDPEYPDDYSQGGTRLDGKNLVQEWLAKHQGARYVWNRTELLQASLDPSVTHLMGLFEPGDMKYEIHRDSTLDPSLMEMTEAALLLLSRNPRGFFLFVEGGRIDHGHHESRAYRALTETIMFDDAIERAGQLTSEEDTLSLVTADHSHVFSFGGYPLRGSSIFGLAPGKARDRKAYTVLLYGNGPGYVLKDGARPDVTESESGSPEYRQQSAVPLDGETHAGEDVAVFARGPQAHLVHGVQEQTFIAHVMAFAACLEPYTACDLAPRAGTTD
UniProt P03772: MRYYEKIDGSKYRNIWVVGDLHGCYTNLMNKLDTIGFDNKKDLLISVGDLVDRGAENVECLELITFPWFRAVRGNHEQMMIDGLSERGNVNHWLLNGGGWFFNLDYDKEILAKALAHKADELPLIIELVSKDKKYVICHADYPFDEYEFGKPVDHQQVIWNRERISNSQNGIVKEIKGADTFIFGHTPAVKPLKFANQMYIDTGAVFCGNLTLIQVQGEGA
UniProt P08289, 18-501 limits assumed: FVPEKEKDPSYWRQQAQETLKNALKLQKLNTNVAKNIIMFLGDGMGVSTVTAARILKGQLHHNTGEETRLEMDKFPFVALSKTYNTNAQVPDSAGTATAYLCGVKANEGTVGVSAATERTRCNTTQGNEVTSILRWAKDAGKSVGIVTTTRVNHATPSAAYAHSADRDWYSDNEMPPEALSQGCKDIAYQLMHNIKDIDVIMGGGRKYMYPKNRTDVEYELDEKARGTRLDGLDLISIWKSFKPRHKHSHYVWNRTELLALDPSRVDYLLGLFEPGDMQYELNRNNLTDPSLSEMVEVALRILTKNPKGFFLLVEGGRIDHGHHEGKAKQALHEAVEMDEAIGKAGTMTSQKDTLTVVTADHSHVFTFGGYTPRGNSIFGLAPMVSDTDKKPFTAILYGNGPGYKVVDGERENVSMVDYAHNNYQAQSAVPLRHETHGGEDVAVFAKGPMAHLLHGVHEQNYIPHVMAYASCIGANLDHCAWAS

SMILES	Ki [1] [µM]	Ki [2] [µM]	Ki [3] [µM]
O=C(O)c1cccc2ccc(CP(O)(O)=S)cc12	1500	170	
O=C(O)CCCCCP(O)(O)=S	1500	1500	
O=C(O)c1cccc2ccc(CP(=O)(O)O)cc12	390	130	300
COC(=O)CCCCCP(O)(O)=S	330	1100	
O=P(O)(O)Cc1ccccc1	580		
O=C(O)CCCCCP(=O)(O)O	7000	430	

Source: BindingDB's records for 12904075
